In patent US20220296627A1, “Cytidine Derivatives and Methods of Forming Cytidine Derivatives” (Aenorasis Commercial Company of Pharmaceutical and Medical …, priority 2019, published 2022):

Key:
Format in all cases: cell-based
[1] = system: A549/WT wild type human lung adenocarcinoma cell line; assay: Cell growth assay (SRB) in A549/WT; details: for IC50: 4-N-acyl and 4-N-phosphoryl derivatives (Table 4); for Ratio of IC50 in the presence of dipyridamole / IC50 in the absence of dipyridamole: 4-N-acyl and 4-N-phosphoryl derivatives (Table 5)
Protocol: (§1) Biological activities of the Gemcitabine derivative (which may be referred to as analogues) described above were evaluated with two assays: • 1. Cell growth assay using the SRB assay in cell lines A549/WT, SW1573/WT, PANC-01 and BXPC-3. • 2. MTT assay in human bladder cancer cell line T-24
(§2) The following cell lines were tested: • A549/WT —wild type human lung adenocarcinoma cell line (1) • SW1573/WT —wild type non-small lung human cell line (2), • PANC-01—human pancreatic cancer cell line (3) • BXPC-3 -epithelial human pancreatic adenocarcinoma cells (4).
(§3) Dipyridamole inhibits adenosine uptake by erythrocytes platelets and endothelial cells in vitro and in vivo. Thus, the present inventors recruited dipyridamole as an inhibitor of the nucleoside transporters of the tumour cells to observe the behaviour of the presently described Gemcitabine derivatives.
(§4) From the IC50 of each compound in the presence of dipyridamole, by dividing it with the IC50 of each compound in the absence of dipyridamole, the present inventors calculated a ratio that compared the efficacy of the analogous presence of dipyridamole.
(§5) Ratio=IC50 in the presence of dipyridamole/IC50 in the absence of dipyridamole • FIG. 10. Ratio of IC50 of 4-N-acyl and 4-N-phosphoryl derivatives in the presence of, compared to in the absence of, dipyridamole, in four cell lines

[2] = system: SW1573/WT wild type non-small lung human cell line; assay: Cell growth assay (SRB) in SW1573/WT; details: SW 1573/WT; for IC50: 4-N-acyl and 4-N-phosphoryl derivatives (Table 4); for Ratio of IC50 in the presence of dipyridamole / IC50 in the absence of dipyridamole: 4-N-acyl and 4-N-phosphoryl derivatives (Table 5)
Protocol: as §1, §2, §3, §4, §5

[3] = system: PANC-01 human pancreatic cancer cell line; assay: Cell growth assay (SRB) in PANC-01; details: for IC50: 4-N-acyl and 4-N-phosphoryl derivatives (Table 4); for Ratio of IC50 in the presence of dipyridamole / IC50 in the absence of dipyridamole: 4-N-acyl and 4-N-phosphoryl derivatives (Table 5)
Protocol: as §1, §2, §3, §4, §5

[4] = system: BXPC-3 epithelial human pancreatic adenocarcinoma cells; assay: Cell growth assay (SRB) in BXPC-3; details: for IC50: 4-N-acyl and 4-N-phosphoryl derivatives (Table 4); for Ratio of IC50 in the presence of dipyridamole / IC50 in the absence of dipyridamole: 4-N-acyl and 4-N-phosphoryl derivatives (Table 5)
Protocol: as §1, §2, §3, §4, §5

SMILES	IC50 [1]	Ratio of IC50 in the presence of dipyridamole / IC50 in the absence of dipyridamole [1]	IC50 [2]	Ratio of IC50 in the presence of dipyridamole / IC50 in the absence of dipyridamole [2]	IC50 [3]	Ratio of IC50 in the presence of dipyridamole / IC50 in the absence of dipyridamole [3]	IC50 [4]	Ratio of IC50 in the presence of dipyridamole / IC50 in the absence of dipyridamole [4]
CCOP(=O)(Nc1ccn(C2OC(CO)C(O)C2(F)F)c(=O)n1)OCC (stereo not shown)	400 nM	6.2	240 nM	10	820 nM	3	190 nM	13
O=c1nc(NP(=O)(O)O)ccn1C1OC(CO)C(O)C1(F)F (stereo not shown)	16 nM	41	14 nM	50	55 nM	123	14 nM	50
